# Laboratory results published in patent US6043261A, “Pyrrolodino imidines useful as nitric oxide synthase inhibitors” (G. D. Searle & Co., priority 1998, dated 2000).
# Counter-ions that a name gives are not always drawn.
# Experiments:
# [1] = molecular target: T1, human inducible NOS (hiNOS) (Homo sapiens, UniProt P35228); test: Citrulline Assay for Nitric Oxide Synthase, hiNOS; assay type: biochemical; details: recombinant human inducible NOS, 37° C., 15 minutes
# T1 construct: made in house; host or cells: insect cells, baculovirus vector
# Protocol: (§1) Citrulline Assay for Nitric Oxide Synthase
# (§2) Nitric oxide synthase activity was measured by monitoring the conversion of L-[2,3-3H]-arginine to L-[2,3-3H]-citrulline (1,2). The cDNA for human inducible NOS (hiNOS) was isolated from a lcDNA library made from RNA extracted from a colon sample from a patient with ulcerative colitis; human endothelial constitutive NOS (hecNOS) was isolated from a lcDNA library made from RNA extracted from human umbilical vein endothelial cells (HUVEC); and human neuronal constitutive NOS (hncNOS) was isolated from a lcDNA library made from RNA extracted from human cerebellum from a cadaver. The recombinant enzymes were expressed in insect cells using a baculovirus vector. Enzyme activity was isolated from cell extracts and partially purified by DEAE-Sepharose chromatography (2). Enzyme and inhibitors were added to give a volume of 50 μL in 50 mM Tris (pH 7.6) and the reaction initiated by the addition of 50 μL of a solution containing 50 mM Tris (pH 7.6), 2.0 mg/mL bovine serum albumin, 2.0 mM DTT, 4.0 mM CaCl2, 20 μM FAD, 100 μM tetrahydrobiopterin, 0.4-2.0 mM NADPH and 60 μM L-arginine containing 0.9 μCi of L-[2,3-3H]-arginine. […] The [3H]-citrulline was separated by chromatography on Dowex 50W X-8 cation exchange resin and radioactivity quantified with a liquid scintillation counter.
# [2] = molecular target: T2, human endothelial constitutive NOS (hecNOS) (Homo sapiens, UniProt P29474); test: Citrulline Assay for Nitric Oxide Synthase, hecNOS; assay type: biochemical; details: recombinant human endothelial constitutive NOS, 37° C., 15 minutes, calmodulin 40-100 nM
# T2 construct: made in house; host or cells: insect cells, baculovirus vector
# Protocol: as §1, §2
compound,measurement,setting,value
"NC1=NC(Cc2ccccc2)CCC1 (centres unmarked) [Example 94, 6-(phenylmethyl)piperidin-2-imine, Monohydrochloride]",IC50,[1],8.6 µM
same,IC50,[2],40 µM
